The entries are a selection whose mix differs from that of the whole data set. The source made the active and inactive calls.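 Rule for the calls: active = viability at or below 40%; inactive = viability above 40%.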
Experiment: H69AR cell viability reduction – human, 86K library, primary screen (AID 598);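 note: multidrug resistant small cell line overexpressing MRP-1 efflux transporter; 100% = mean luminescence of untreated control wells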
Conditions: H69AR lung tumor viability, ATP luminescence, 72 h; at 10 µM; stronger effect = lower value

Row | Structure (SMILES) | viability
1 | Fc1ccccc1NC1CCN(Cc2ccccc2)CC1 | inactive: 94%
2 | CCOc1ncccc1C(=O)NCC1(N2CCOCC2)CCCCC1 | inactive: 97.2%
3 | CCC(CO)(C(=O)OC1CN2CCC1CC2)c1ccccc1 (centres undefined) | inactive: 99.6%
4 | N/C(=N\O)c1c(N)no[n+]1[O-] | inactive: 104%
5 | c1ccc(CN2CCC(Nc3ccccc3)CC2)cc1 | inactive: 96.3%
6 | N#CC1(Nc2ccccc2)CCN(CCc2ccccc2)CC1 | inactive: 96.5%
7 | O=C(NCC1(N2CCOCC2)CCCCC1)c1cc(=O)[nH]c2ccccc12 | inactive: 95.7%
8 | O=C(NCC1(N2CCOCC2)CCCCC1)c1cc2ccccc2o1 | inactive: 85.6%
9 | O=C(OC1CN2CCC1CC2)C1c2ccccc2Oc2ccccc21 (centres undefined) | inactive: 79.7%

From PubChem BioAssay AID598 (SRMLSC, 2007)
